Measurements: US11351178B2, “Selective HDAC6 inhibitors” (ITALFARMACO S.P.A., priority 2017, dated 2022)

Columns and labels:
Assay type in all cases: cell-based
[1] = system: regulatory T cell (Treg, CD4+CD25+) suppression activity; test: T CD4 lymphocyte proliferation mediated by mouse regulatory T cells suppression assay
Description: To evaluate the ability of the molecules under this patent to increase regulatory T cell (Treg, CD4^+CD25^+) suppression activity a T-cell (responder T cells, Teff) proliferation suppression assay was used. Treg cells at different concentrations were cultured with Teff cells (CD4^+CD25^−) in the presence of proliferative stimuli. T cells need of two stimuli to proliferate: the first given by the recognition of antigen associated with MHC by T cell receptor (TCR) and the second one derived from co-stimulatory molecules such as CD28. In the absence of a specific antigen, TCR activation can take place with an antibody recognizing one of the composing subunits, CD3ε. In this assay, anti-CD3ε monoclonal antibody and CD4 T cell depleted splenocytes were used as activator stimuli. Therefore, the ability to reduce Teff cells proliferation by Tregs in the presence or absence of HDAC6 inhibitors was assessed.
Treg and Teff cells were separated using the Treg isolation kit based on magnetic beads separation technique (Miltenyi Biotec) through an initial negative selection and a final positive selection process.
Single cell suspension was obtained from spleen of C57BL/6 mice using a 70 μm strainer.
Cell suspension was treated with ACK buffer to lyse red blood cells and then centrifuged for 5 minutes at 300×g. After centrifugation, the cells were resuspended in PBS (Phosphate Buffered Saline, Gibco) and counted. Subsequently, splenocytes were resuspended in a buffer consisting of PBS, 0.5% BSA and 2 mM EDTA.
To proceed with the first step of Treg separation, CD4 negative cells were indirectly magnetically labeled with a cocktail of biotin-conjugated antibodies against CD8a, CD11b, CD45R, CD49b, Ter-119 and Anti-Biotin MicroBeads CD4+ cells were thus obtained by negative selection as flow-through of a magnetic MACS column.
Cells bound to microbeads were eluted and conserved for their use as antigen presenting cells (APC) in the proliferation assay.
In the second step of Treg purification, pre-enriched CD4+ cells were labelled with an R-phycoerythrin (PE)-conjugated anti-CD25 antibody that preferentially binds to Treg cells and magnetic beads coupled with an anti PE antibody. The cell suspension was then loaded on a column. The Teff cells pass through the column without binding (negative selection), while beads-bound Treg cells adhere through the magnetic beads (positive selection). Treg cells were then eluted from the column by buffer flow using a plunger. Treg and Teff cell purification is summarized in FIG. 6. • CD4− cells from first positive selection as APC • Treg CD4+ CD25+ as suppressor cells • Teff CD4+ CD25− as responder/proliferating cells
CD4^− cells were treated with mitomycin C (50 μg/ml, Sigma) for 30 min at 37° C. to prevent their proliferation They were then resuspended at a concentration of 4.0×10^5/50 μl in complete medium (RPMI, FBS10%, penicillin/streptomycin 1×, 50 μM beta mercaptoethanol). Teffs were labeled with carboxy fluorescein succinimidyl ester (CFSE) at a concentration of 2 μM in PBS at 37° C., and after 10 minutes incubation, the reaction was blocked with a 10% FBS PBS solution. CFSE labelling allows covalent modification of Teff cell to analyse their proliferation by fluorescence dilution. The labelled Teffs were then centrifuged and resuspended at the final concentration of 5.0×10^4/50 μl in complete medium. Finally, the Tregs obtained by purification were diluted to the final concentration of 5.0×10^4/50 μl in complete medium. […]

[2] = system: H3 histone acetylation in 697 cell line; test: In vitro H3 histone acetylation in 697 cell line; details: 16 h, read-out: Acetylation of H3 histone (fold increase of acetylated H3/total H3 towards control); for fold induction at 0.111 µM: conc 111 nM; for fold induction at 0.333 µM: conc 333 nM; for fold induction at 1 µM: conc 1000 nM
Description: (§1) The in vitro α-tubulin and H3 histone acetylation determination was evaluated on B 697 […] cell line.
(§2) The test molecules were diluted from 20 mM stock solution in DMSO with RPMI 10% FCS+0.01% DMSO medium at 20× concentration compared to the final concentration, added to the cells (15×10^6 cells in a total volume of 30 ml in RPMI medium 10% FCS+0.01% DMSO) to obtain the final concentrations of 1000, 333, 111 and 37 nM and incubated at 37° C., 5% CO2 for 16 hours.
The remaining cells (10×10^6) were treated by acid extraction of histones (Kazuhiro et al., PNAS (2002), 99 (13) 8921-8926). Cells were centrifuged 5 min at 1100 rpm at 4° C. and washed once in 0.9% NaCl. The resulting pellet was lysed with […] (10 mM Tris.HCl, pH 6.5/50 mM sodium bisulphite, 1% Triton X-100/10 mM MgCl2/8.6% saccharose containing the protease inhibitor mixture (Roche)) for 20 min at 4° C. The resulting nucleus pellet was repeatedly washed in buffer until supernatant clarification (centrifuged at 7,500×g, 5 minutes after each wash) and finally washed in nucleus buffer (10 mM Tris.HCl/13 mm EDTA, pH 7, 4) and resuspended in 250 μl of 0.2 M HCl/H2SO4. Histone proteins were extracted in an acidic environment by incubating overnight at 4° C. under gentle shaking. After centrifugation at 14,000 rpm at 4° C. for 10 minutes, 1250 μl of cold acetone was added to the supernatant and incubated overnight at −20° C., resulting in the precipitation of histone proteins. The pellet obtained after centrifugation for 10 minutes at 14000 rpm and 4° C. was washed with cold acetone, evaporated to dryness and resuspended in 50 μl distilled water. The protein content determination of both total and histone extracts was carried out by a colorimetric assay using a BCA Protein Assay Kit (Pierce cat: 23227).
H3 histone acetylation and total H3 amount were quantified by commercial ELISA assays PathScan acetylated histone H3 Sandwich Elisa kit, cat #7232C and PathScan total histone H3 Sandwich Elisa Kit, cat #7253C Cell Signaling) according to supplier reported method and by detecting absorbance at 450 nm wavelength using Multiskan Spectrum. ELISA tests were performed by analysing 0.250 μg and 0.500 μg of histone extract of each sample. The degree of acetylation was calculated by dividing H3 histone absorbance by histone total absorbance.
(§3) Test results of tubulin and H3 histone acetylation, expressed as fold increase of ratio of acetylated α-tubulin/total α-tubulin and H3Ac/H3Tot, respectively, of each sample relative to the control sample (untreated) are summarized in Tables 6 and 6′.

[3] = system: α-tubulin acetylation in 697 cell line; test: In vitro α-tubulin acetylation in 697 cell line; details: 16 hours, read-out: Tubulin acetylation (ratio of acetylated tubulin and total tubulin towards control); for fold induction at 0.037 µM: Conc 37 nM; for fold induction at 0.111 µM: Conc 111 nM; for fold induction at 0.333 µM: Conc 333 nM; for fold induction at 1 µM: Conc 1000 nM
Description: as §1, §2
At the end of the incubation period, 5×10^6 cells were taken from each sample, centrifuged for 5 minutes at 1100 rpm and washed in 0.9% NaCl at 4° C. The resulting pellet was lysed by treating at 4° C. for 30 minutes with 150 μl of Complete Lysis-M (Roche, cat-04719956051) containing protease inhibitors and phosphatase (Complete Easy Pack proteinase inhibitor cocktail tablets cat: 04693116001, Phostop easypack phosphatase inhibitor cocktails, cat: 01906837001—Roche), then centrifuged 10 minutes at 14,000 rpm (20817×g). 0.150 μg of supernatant (total protein extract) were diluted in 100 μl of 1×PBS and immobilized in Maxisorp F96 NUN-IMMUNO Plate (Nunc cat #5442404) at room temperature overnight. Plates were washed twice with Wash Buffer (PBS1X+0.005% tween 20) and saturated for 1 hour at room temperature with 300 μL of 1×PBS containing 10 FCS. After washing with buffer (1×PBS containing 0.005% tween), the plates were incubated for two hours at room temperature in the presence of anti-acetylated-α-tubulin antibody (Monoclonal Anti-acetylated-tubulin clone 6-11B-1, mouse ascites fluid, cat #T6793 Sigma, 100 μl diluted 1:1000 in 1×PBS containing 10% FCS) or with total anti-α-tubulin antibody (Monoclonal Anti alpha-tubulin produced in mouse, cat #T6074 Sigma). After washing, 100 μl per well of TMB substrate kit was added for 10 minutes at room temperature in the dark. The reaction was stopped by adding 50 μl of 2N H2SO4. The plates were read at Multiskan Spectrum spectrophotometer at a wavelength of 450 nm.
The degree of acetylation was calculated by dividing the absorbance obtained for acetylated α-tubulin by the absorbance of total α-tubulin.
as §3

## Cn1c(Sc2ccc(C(=O)NO)cc2)nnc1-c1cccs1 [comp. 10, N-hydroxy-4-((4-methyl-5-(thiophen-2-yl)-4H-1,2,4-triazol-3-yl)thio)benzamide]
[1]; concentration 0.5 μM
  RS (relative T-reg suppression, AUC drug/AUC control): 3.2
[1]; concentration 0.75 μM
  RS (relative T-reg suppression, AUC drug/AUC control): 7.4
[1]; concentration 1 μM
  RS (relative T-reg suppression, AUC drug/AUC control): 5.2
[2]
  fold induction at 0.111 µM: 1
  fold induction at 0.333 µM: 1
  fold induction at 1 µM: 2
[3]
  fold induction at 0.037 µM: 3
  fold induction at 0.111 µM: 7
  fold induction at 0.333 µM: 13
  fold induction at 1 µM: 16

## Cn1c(Sc2c(F)cc(C(=O)NO)cc2F)nnc1-c1cccs1 [comp. 17, 3,5-difluoro-N-hydroxy-4-((4-methyl-5-(thiophen-2-yl)-4H-1,2,4-triazol-3-yl)thio)benzamide]
[1]; concentration 0.5 μM
  RS (relative T-reg suppression, AUC drug/AUC control): 1.7
[1]; concentration 1 μM
  RS (relative T-reg suppression, AUC drug/AUC control): 1.9
[2]
  fold induction at 0.111 µM: 2
  fold induction at 0.333 µM: 1
  fold induction at 1 µM: 2
[3]
  fold induction at 0.037 µM: 3
  fold induction at 0.111 µM: 8
  fold induction at 0.333 µM: 9
  fold induction at 1 µM: 10

## Cc1cc(-c2nnc(Sc3c(F)cc(C(=O)NO)cc3F)n2C)nn1C [comp. 100, 4-[[5-(1,5-dimethylpyrazol-3-yl)-4-methyl-1,2,4-triazol-3-yl]sulfanyl]-3,5-difluoro-benzenecarbohydroxamic acid]
[2]
  fold induction at 0.111 µM: 1
  fold induction at 0.333 µM: 3
  fold induction at 1 µM: 2
[3]
  fold induction at 0.037 µM: 2
  fold induction at 0.111 µM: 3
  fold induction at 0.333 µM: 9
  fold induction at 1 µM: 14
